Our source for the activity change (cytotoxicity) values is PubChem BioAssay AID602141 (Sanford-Burnham Center for Chemical Genomics, 2011).

Each structure is given as a SMILES string. This is a selection; strong and weak results do not stand in their true shares. Calls of active or inactive are those of the source.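 How the source made its calls: active means corrected activity change at or below -50% at 5 µM; inactive means the rest.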

The experiment in a line: cytotoxicity in KKLEB CF airway cells, primary screen, cytotoxicity control for CF NF-kB inhibitor project, cell-based, uHTS, fluorescence assay plates (AID 602141). To be noted: KKLEB CF airway cells viability, ATPlite luminescence, overnight; at 5 µM; stronger effect = lower value; cells stimulated with P. aeruginosa culture filtrate. On the technique in general: In ATP-based viability assays light output follows the ATP content of the culture.
As to `c1nnnn1CCn1cnnn1`, the activity change (cytotoxicity) is inactive: -12.2%.
As for `O=P(Nc1nccs1)(c1ccccc1)c1ccccc1`, the figure is inactive: 1%; as for `CC(C)C(=O)NC(Sc1ccccc1)C(Cl)(Cl)Cl` (configuration not stated), inactive: -7.6%.
As for `Nc1ccc([As](=O)(O)c2ccc([N+](=O)[O-])cc2)cc1`, the figure is inactive: -3.8%.
With `C(Cc1nn[nH]n1)Cc1nn[nH]n1`, the activity change (cytotoxicity) was inactive: 1.6%.
For the compound `O=C(OC1CN2CCC1CC2)c1cccc(Cl)c1` (configuration not stated), the activity change (cytotoxicity) is inactive: 2.9%.
As for `CC(=O)NC(SC(=S)N(C)C)C(Cl)(Cl)Cl` (configuration not stated), the figure is inactive: -13.2%.
As for `O=[N+]([O-])c1ncn(CCn2cnc([N+](=O)[O-])n2)n1`, the figure is inactive: 3%; as for `O=[N+]([O-])c1ccc(O)c(/C=N/Nc2ccc([N+](=O)[O-])cc2[N+](=O)[O-])c1`, active: -63.7%; as for `O=[As](O)(c1ccccc1)c1ccc(O)cc1`, inactive: -3.8%.
As for `C[C@H]1OP(=O)(Oc2ccccc2)[C@H](O)[C@H](O)[C@H]1N=[N+]=[N-]` (some centres not stated), the figure is inactive: 9.9%; as for `O=P(Nc1nc2ccccc2s1)(c1ccccc1)c1ccccc1`, inactive: -10.3%; as for `Nc1ccc(CCCCOc2ccccc2)cc1`, inactive: -0.3%.
For the compound `COc1ccc(N)c([N+](=O)[O-])c1[N+](=O)[O-]`, the activity change (cytotoxicity) was inactive: 9.6%.
`CN(C)C1(CNC(=O)c2ccc(Cl)c(S(N)(=O)=O)c2)CCCCC1`: the activity change (cytotoxicity) is inactive: -0.7%.
The result for `O=P(Nc1ccccn1)(c1ccc(Br)cc1)c1ccc(Br)cc1` reads inactive: -2%; that for `CN(C)C(=O)Oc1noc2ccccc12`, inactive: 7.2%; that for `O=c1c2cc([N+](=O)[O-])ccc2[nH]c2c([N+](=O)[O-])cc([N+](=O)[O-])cc12`, inactive: -34.4%.
As for `Cc1ccccc1OP(=O)(Nc1ccccn1)Oc1ccccc1C`, the figure is inactive: -12.6%; as for `CC(NC(=O)COC(=O)C(O)(c1ccccc1)c1ccccc1)c1ccccc1` (configuration not stated), inactive: -2.3%; as for `CC(=O)NC(SC(=S)N(CC(C)C)CC(C)C)C(Cl)(Cl)Cl` (configuration not stated), inactive: -4%.
As for `Cc1ccc(OP(=O)(Nc2ccccn2)Oc2ccc(C)cc2)cc1`, the figure is inactive: 2.1%; as for `COC(=O)c1cc2c(s1)N=C(c1ccccc1)N(C)P2(=O)N1CCOCC1` (configuration not stated), inactive: -3.2%; as for `CCC(=O)N1C2C3N(C(=O)CC)C1C1N(C(=O)CC)C(C(N1C(=O)CC)N3C(=O)CC)N2C(=O)CC`, inactive: -8%.
Take `O=C(OC1CN2CCC1CC2)c1ccccc1` (configuration not stated): the activity change (cytotoxicity) is inactive: 5.3%.
The result for `O=P1(N(CCCl)CCCl)OCCC2CCCCN21` (configuration not stated) reads inactive: 7.4%; that for `O=C(NC1CCS(=O)(=O)C1)NP(=S)(Oc1ccccc1)Oc1ccccc1` (configuration not stated), inactive: -2%.
As for `CCNC(=S)/N=C(\N)N[N+](=O)[O-]`, the figure is inactive: -3%; as for `Cc1ccc(NP(=O)(Oc2cccc(C)c2)Oc2cccc(C)c2)nc1`, inactive: 9.8%; as for `c1ccc(-c2nn[nH]n2)c(-c2nn[nH]n2)c1`, inactive: -4.2%.
On to `CC(=O)Nc1ccc(Oc2c([N+](=O)[O-])cc([N+](=O)[O-])cc2[N+](=O)[O-])cc1`, for which the activity change (cytotoxicity) is inactive: 6.3%.
Consider `CC(=O)Nc1ccc([As](=O)(O)O)c(O)c1`, for which the activity change (cytotoxicity) is inactive: 0.7%.
Turning to `COC(=O)C1(C)COP(=O)(NCc2ccccc2)OC1` (configuration not stated), the activity change (cytotoxicity) is inactive: -4.1%.
The result for `N#C/C(=C\c1ccc(N(CCBr)CCBr)cc1)C(N)=O` reads inactive: -3.8%; that for `CC(=O)c1ccc(N2CC2c2ccncc2)cc1` (configuration not stated), inactive: 3%.
The result for `C[C@@H]1C=CCP(=O)(Oc2ccccc2)O1` (some centres not stated) reads inactive: 0.7%.
The result for `C[C@H]1OP(=O)(Oc2ccccc2)C[C@@H]2O[C@@H]21` (some centres not stated) reads inactive: -12.2%.
For the compound `Cc1ccccc1CN(C)C(=O)COC(=O)C(O)(c1ccccc1)c1ccccc1`, the activity change (cytotoxicity) was inactive: 1.6%.
As for `CCc1cc(O)c([N+](=O)[O-])c(C)c1[N+](=O)[O-]`, the figure is inactive: -7.2%; as for `CC(C)(C)C(=O)NC(Sc1ccccc1)C(Cl)(Cl)Cl` (configuration not stated), inactive: -3.1%; as for `CCOc1ccc(C2=NCC(CBr)S2)cc1` (configuration not stated), inactive: -11.4%.
The result for `O=P1(Nc2nc3ccc(Cl)cc3s2)COc2ccccc2O1` (configuration not stated) reads inactive: -5.9%; that for `O=[N+]([O-])C1C(O)C(O)C([N+](=O)[O-])C(O)C1O` (configuration not stated), inactive: 0.3%; that for `CC(C)CC(=O)NC(Sc1ccc(Cl)cc1)C(Cl)(Cl)Cl` (configuration not stated), inactive: -15%.
As for `Nc1cc(N)c2nonc2c1[N+](=O)[O-]`, the figure is inactive: 11.1%; as for `O=C(NC(Sc1ccncn1)C(Cl)(Cl)Cl)c1ccccc1` (configuration not stated), inactive: 2.3%.
For `Oc1ccccc1CNc1ccccn1`, the activity change (cytotoxicity) was inactive: 6.6%.
As for `Cc1ccc(OP(=O)(Nc2nccs2)Oc2ccc(C)cc2)cc1`, the figure is inactive: 7%; as for `COc1ccccc1OP(=O)(Nc1ccc(C)cn1)Oc1ccccc1OC`, inactive: -0.4%.
Consider `Clc1ccc(Cl)c(NC2=NCC(CBr)S2)c1` (configuration not stated), for which the activity change (cytotoxicity) is inactive: -3.5%.
Take `CN1CCCC(OC(=O)C(c2ccccc2)c2ccccc2)C1` (configuration not stated): the activity change (cytotoxicity) was inactive: -0.4%.
Turning to `NC(=O)c1cc([N+](=O)[O-])cc([N+](=O)[O-])c1N`, the activity change (cytotoxicity) was inactive: 14.1%.
For `Cc1ccc(N/C(=N/P(=O)(N2CCOCC2)N2CCOCC2)N2CCOCC2)cc1`, the activity change (cytotoxicity) is inactive: -16.4%.
The result for `CN(C(=O)Cc1ccc(Cl)c(Cl)c1)[C@H]1CCCC[C@H]1N1CCCC1` reads inactive: 2.7%; that for `CCN(N=Nc1nonc1N)c1nonc1N`, inactive: 2.3%.
As for `Nc1cccc2ccc([As](=O)(O)O)cc12`, the figure is inactive: -4.8%; as for `CN(C(=O)Cc1ccc(Cl)c(Cl)c1)[C@H]1CCCC[C@@H]1N1CCCC1`, inactive: -18%.
Take `Cc1ccc(NP(=O)(Oc2ccccc2F)Oc2ccccc2F)nc1`: the activity change (cytotoxicity) was inactive: -1.9%.
For the compound `CCOP(=O)(Nc1ccccc1)OCC`, the activity change (cytotoxicity) is inactive: 8.4%.
The result for `CCCC1OP(N)(=O)OCC1CC` (configuration not stated) reads inactive: 0.6%; that for `O=C(O)c1ccccc1[As](=O)(O)O`, inactive: -0.9%.
The result for `CC(=O)Nc1ccc([As](=O)(O)O)cc1` reads inactive: 19.5%.
The result for `CN(C)P(=O)(N(C)C)n1c(Nc2ccccc2)nnc1-c1ccccc1` reads inactive: -21.5%; that for `O=P(Nc1nc2ccc(Cl)cc2s1)(c1ccccc1)c1ccccc1`, inactive: -7.9%; that for `O=[N+]([O-])c1cccc(NC2=NCC(CBr)S2)c1` (configuration not stated), inactive: -13.2%.
In the case of `COC(=O)C1(C)COP(=O)(Nc2ccccc2)OC1` (configuration not stated), the activity change (cytotoxicity) was inactive: -12.7%.
As for `O=C(O)CNc1ccc([As](=O)(O)O)cc1`, the figure is inactive: -2.9%; as for `CC(C)(C)C(=O)NC(Sc1ccncn1)C(Cl)(Cl)Cl` (configuration not stated), inactive: 4.5%.
As for `O=[N+]([O-])c1ncn(CCn2ncnc2[N+](=O)[O-])n1`, the figure is inactive: 1.9%; as for `O=C(Nc1cc([As](=O)(O)O)ccc1O)c1ccccc1`, inactive: 7.2%; as for `O=P1(N(CCCl)CCCl)OCCCS1` (configuration not stated), inactive: 8.8%.
As for `CN(C)C(=O)OCCc1n(C)cc[n+]1C`, the figure is inactive: -5.5%; as for `CC(C)=N/N=C(\N)N[N+](=O)[O-]`, inactive: 7.7%; as for `CC(C)c1nc(Nc2ccccc2)n(P(=O)(N(C)C)N(C)C)n1`, inactive: -4.9%.
As for `c1cc(-c2nn[nH]n2)ccc1-c1nn[nH]n1`, the activity change (cytotoxicity) was inactive: 15.9%.
The result for `CC1CCN(C(=O)Oc2c(Cl)cc(Cl)c3cccnc23)CC1` reads inactive: 3.6%; that for `C[N+]1=C2C=CC=CC=C2SC12C([N+](=O)[O-])=CC([N+](=O)[O-])=C[C-]2[N+](=O)[O-]` (configuration not stated), inactive: -6.9%; that for `Nc1ccc([As](=O)(O)c2ccc(N)cc2)cc1`, inactive: -8.2%.
The result for `CCN(/C(=N/P(=O)(N1CCOCC1)N1CCOCC1)N1CCOCC1)c1ccc(OC)cc1` reads inactive: -0.8%.
As for `CC(=O)N1C2C3N(C(C)=O)C1C1N(C(C)=O)C(C(N1C(C)=O)N3C(C)=O)N2C(C)=O`, the figure is inactive: -14.9%; as for `O=[N+]([O-])c1cccc2n[nH]nc12`, inactive: 5.4%; as for `O=[N+]([O-])c1cc([N+](=O)[O-])c(CCNc2ccccc2)c([N+](=O)[O-])c1`, inactive: -7.7%.
Turning to `CCc1nc2c(n1)c1c(non1O)c1c2no[n+]1[O-]`, the activity change (cytotoxicity) is inactive: -2.9%.
The result for `Cc1ccc(NP(=O)(Oc2ccccc2)Oc2ccccc2)nc1` reads inactive: 7.3%.
The result for `COc1ccc(C2=NCC(CBr)S2)cc1` (configuration not stated) reads inactive: -7.1%; that for `CCC(C)N(CC(C)C)C(=S)SC(NC(C)=O)C(Cl)(Cl)Cl` (configuration not stated), inactive: 5.7%; that for `CCOC(=O)c1ccc(NC(=O)C(C)(CCl)SC)cc1` (configuration not stated), inactive: -7.9%.
The result for `CSc1ccc(Nc2c([N+](=O)[O-])cc([N+](=O)[O-])cc2[N+](=O)[O-])cc1` reads inactive: -6.3%; that for `O=C(OC1CN2CCC1CC2)c1cccc([N+](=O)[O-])c1` (configuration not stated), inactive: 9.5%; that for `O=C(Nc1ccncc1[N+](=O)[O-])c1ccc([N+](=O)[O-])cc1[N+](=O)[O-]`, inactive: -5.9%.
As to `O=C(COc1ccccc1)OC1CN2CCC1CC2` (configuration not stated), the activity change (cytotoxicity) is inactive: 8.7%.
In the case of `O=C(O)C(=O)c1ccc(N(CCCl)CCCl)cc1`, the activity change (cytotoxicity) was inactive: 12.3%.
As for `COC(=O)C1(C)COP(=O)(N2CCCC2)OC1` (configuration not stated), the figure is inactive: 8.5%; as for `COP1(=S)c2c(C)nn(CCC#N)c2N=C(c2ccc(F)cc2)N1C` (configuration not stated), inactive: -1.2%; as for `O=[N+]([O-])c1ccc(Nc2ccc(Oc3ccc([N+](=O)[O-])cc3[N+](=O)[O-])cc2)c([N+](=O)[O-])c1`, inactive: -22.3%.
Take `Cc1cc(SC(NC=O)C(Cl)(Cl)Cl)ncn1` (configuration not stated): the activity change (cytotoxicity) was inactive: -3%.
As for `O=P(Nc1ccccn1)(c1cccc2ccccc12)c1cccc2ccccc12`, the figure is inactive: 21.1%.
As for `CCOC(=O)Nc1cccc([As](=O)(O)O)c1`, the figure is inactive: 8.2%; as for `Cc1cc(SC(NC(=O)c2ccccc2)C(Cl)(Cl)Cl)nc(C(C)C)n1` (configuration not stated), inactive: -6.7%.
The result for `CCCCOc1ccc(C(=O)NCC2(N3CCCCC3)CCCCC2)cc1OC` reads inactive: 12.8%.
On to `COP(=O)(OC)N1CC1c1ccccc1` (configuration not stated), for which the activity change (cytotoxicity) is inactive: -6.9%.
The result for `CC1CCNP(=O)(N(CCCl)CCCl)O1` (configuration not stated) reads inactive: 5.3%.
